From PMC5290001 (Clinical cancer research : an official journal of the …, 2016) come the findings set out here.

Data set [1] is described as follows: Temozolomide plasma pharmacokinetics. It counts as in vivo, human.
The nature of data set [2]: Veliparib plasma pharmacokinetics. The class given is in vivo, human.
Where [3] appears, read: combination (day 8) versus alone (day 1).

For `Cn1nnc2c(C(N)=O)ncn2c1=O` [Temozolomide, temozolomide], in data set [1] (combination with veliparib versus alone), the “Accumulation index for AUC” value came out at 0.89 ± 0.26. Further, in data set [1] (temozolomide 200 mg/m^2/day in combination with veliparib 20–200 mg (day 8)), the Cl/F was 10.1±2.7 (25) L/h.
As for `C[C@]1(c2nc3c(C(N)=O)cccc3[nH]2)CCCN1` [Veliparib, veliparib], in data set [2] (setting [3]), the “Accumulation index for AUC” value is on record as 1.38 ± 0.52 and the “Accumulation index for Cmax” value is on record as 1.66 ± 0.62. Further, the V/F in data set [2] (veliparib 40 mg alone (day 1), temozolomide dose 200 mg/m^2/day, n=1) was 90 (1) L.
